## scFv variants of Ab-14 (heavy chain) against a SARS-CoV-2 spike peptide

Source: Engelhart et al. 2022 (doi:10.1038/s41597-022-01779-4), MIT Lincoln Laboratory and A-Alpha Bio; data file from the FLAb repository.

Antigen: PDVDLGDISGINAS, a 14-residue peptide of the SARS-CoV-2 spike HR2 region.

The variants keep the light chain, the linker and the frameworks of Ab-14 (scFv order VH, a (GGGGS)3 linker, VL).
VH: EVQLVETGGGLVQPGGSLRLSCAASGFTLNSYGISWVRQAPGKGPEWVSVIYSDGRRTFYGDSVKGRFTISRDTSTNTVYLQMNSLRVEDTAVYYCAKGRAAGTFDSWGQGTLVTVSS
VL: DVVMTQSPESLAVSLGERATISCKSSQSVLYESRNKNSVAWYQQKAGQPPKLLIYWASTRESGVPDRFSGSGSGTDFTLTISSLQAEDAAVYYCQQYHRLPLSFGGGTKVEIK

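The parent was found by panning a naive human phage display library on the peptide. The library (AAYL49) carries one to three amino acid substitutions per variant, with no insertions or deletions. In AlphaSeq, yeast of one mating type display the scFv and yeast of the other type display the target. Pairs that bind mate more often; barcode pairs of the diploids are counted by sequencing. The ratio of observed to expected reads was calibrated, replicate by replicate, on BCL2-family standards whose Kd was known from biolayer interferometry. Each pool was mated in three replicate cultures.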

Substitutions are numbered in sequence along the VH above, starting at 1 (not Kabat).
This list gathers variants with a substitution at I34 (VH, numbered from residue 1).
Scale: log10 of Kd in nM, estimated from mating counts; low values are strong binders.
Averages over replicates are reported, and they cover detected replicates only.
"nd" marks a missing value. The strain was present, yet no cells mated with the target were sequenced in any replicate, which points to weak or no binding.
In this assay the parent's reference entry averaged 0.65; its copy inside this library read 4.11 (one replicate of three).
As a blank, each scFv also met three strains without target: over library AAYL49, 15% of these pairings were detected, typically at 4.06 and seldom below 2.83.

I34E R57P D106Y: 3.75 (1 of 3 replicates).
I34Y G55S K65T: nd (0 of 3 replicates).
I34T F59P T104D: nd (0 of 3 replicates).
L29E I34Q S53D: nd (0 of 3 replicates).
F27M I34N A102C: nd (0 of 3 replicates).
I34F D54E G99I: nd (0 of 3 replicates).
I34Q I51M F105G: 4.03 (2 of 3 replicates).
I34P G61T V64T: 5.20 (1 of 3 replicates).
F27K I34R: 4.34 (1 of 3 replicates).
I34R: 5.14 (2 of 3 replicates).
I34M A101C A102H: nd (0 of 3 replicates).
I34V D62M F105I: 3.23 (3 of 3 replicates).
I34M I51E: 4.39 (2 of 3 replicates).
G33L I34P G61R: nd (0 of 3 replicates).
I34Q D54W: 3.81 (2 of 3 replicates).
I34N S35D A102V: nd (0 of 3 replicates).
T28V I34V G61M: 2.74 (3 of 3 replicates).
I34G V50L: nd (0 of 3 replicates).
I34M G61Y: 3.08 (1 of 3 replicates).
N30H I34S Y60S: 5.51 (1 of 3 replicates).
Y32D I34A G55K: 4.60 (1 of 3 replicates).
G33T I34M G61H: nd (0 of 3 replicates).
I34M Y60S A101W: nd (0 of 3 replicates).
I34W Y60F D62H: nd (0 of 3 replicates).
I34E V50W D54C: 4.10 (1 of 3 replicates).
T28D I34F S107Y: 2.58 (1 of 3 replicates).
I34N G103L D106H: nd (0 of 3 replicates).
I34P G55D S107T: nd (0 of 3 replicates).
I34G D54C R56C: nd (0 of 3 replicates).
I34F G61Y S107E: nd (0 of 3 replicates).
I34E G99P D106Y: nd (0 of 3 replicates).
I34H A102R T104E: nd (0 of 3 replicates).
F27L I34T: 3.28 (2 of 3 replicates).
I34N K65I: nd (0 of 3 replicates).
I34K R100Y A102N: nd (0 of 3 replicates).
Y32N I34G D106E: 4.61 (3 of 3 replicates).
S31A I34R: nd (0 of 3 replicates).
I34A D54F F105V: 4.69 (3 of 3 replicates).
I34E Y52C S53Q: 2.98 (2 of 3 replicates).
I34L K65I A101V: nd (0 of 3 replicates).
S31W I34D G99V: 3.45 (1 of 3 replicates).
Y32P I34P A102V: 3.99 (1 of 3 replicates).
L29I I34H D54W: nd (0 of 3 replicates).

Again, the first 6 entries without any signal:

| changes | log10 Kd (nM), mean | detected |
|---|---|---|
| I34Y G55S K65T | nd | 0 of 3 |
| I34T F59P T104D | nd | 0 of 3 |
| L29E I34Q S53D | nd | 0 of 3 |
| F27M I34N A102C | nd | 0 of 3 |
| I34F D54E G99I | nd | 0 of 3 |
| I34M A101C A102H | nd | 0 of 3 |